Experiments:
[1] = system: Human pancreas a-chymotrypsin; assay: Chymotrypsin activity inhibition, chromogenic substrate S-7388; format: biochemical; settings: read-out: Chymotrypsin Inhibition; 250 uM S-7388, 10 min pre-incubation, RT
Human Factor XIa = Human Factor XIa (Homo sapiens, UniProt P03951); assay: Factor XIa activity inhibition, chromogenic substrate S-2366; settings: read-out: Factor XIa Inhibition; S-2366, 10 min pre-incubation, RT

Chains of the proteins cited; added tags and fusions are not shown. Residues count along the entry.
UniProt P03951, 388-625 limits assumed: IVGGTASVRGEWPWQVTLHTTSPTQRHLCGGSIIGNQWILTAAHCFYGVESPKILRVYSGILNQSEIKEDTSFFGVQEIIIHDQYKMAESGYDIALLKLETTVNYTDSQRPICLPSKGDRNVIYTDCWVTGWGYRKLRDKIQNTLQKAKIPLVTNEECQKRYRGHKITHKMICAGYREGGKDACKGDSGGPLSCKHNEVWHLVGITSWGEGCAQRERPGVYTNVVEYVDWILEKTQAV
UniProt P03951, 19-387 partner limits assumed: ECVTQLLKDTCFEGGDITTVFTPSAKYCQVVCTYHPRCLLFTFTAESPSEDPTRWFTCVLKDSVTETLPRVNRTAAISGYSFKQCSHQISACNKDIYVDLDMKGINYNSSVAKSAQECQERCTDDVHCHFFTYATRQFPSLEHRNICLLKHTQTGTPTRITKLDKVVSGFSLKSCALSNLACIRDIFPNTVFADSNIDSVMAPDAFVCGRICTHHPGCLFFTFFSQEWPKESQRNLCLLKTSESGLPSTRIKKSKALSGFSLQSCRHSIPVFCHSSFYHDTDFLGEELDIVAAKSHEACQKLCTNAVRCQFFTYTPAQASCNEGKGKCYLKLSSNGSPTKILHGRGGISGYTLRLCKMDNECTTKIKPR

How did the IC50 [1] turn out when `COCC(C)(C)C(=O)n1nc(C2CCNCC2)cc1NCc1ccc(Cl)s1` was run?
The IC50 was greater than 100 µM.

And the IC50 (Human Factor XIa)?
Its IC50 is 10 to 100 µM.

With `CC(C)(C)OC(=O)N1CCC(c2cc(NCc3ccc(Cl)s3)n(C(=O)C(C)(C)C)n2)CC1` [Entry 292, tert-butyl 4-(5-[(5-chlorothiophen-2-yl)methyl]amino-1-(2,2-dimethylpropanoyl)-1H-pyrazol-3-yl)piperidine-1-carboxylate] as the compound, how does the IC50 [1] read?
The IC50 was greater than 100 µM.

And the IC50 (Human Factor XIa)?
Its IC50 is greater than 100 µM.

For `CC(C)(C)C(=O)n1nc(C2CCN(CC(F)(F)F)CC2)cc1NCc1ccc(Cl)s1`, which IC50 [1] is on record?
Its IC50 is greater than 100 µM.

And the IC50 (Human Factor XIa)?
Its IC50 is greater than 100 µM.

How did the IC50 [1] turn out when `CC(C)(C)C(=O)n1nc(C2CCNCC2)cc1NCc1ccc(Cl)s1` was run?
The IC50 was 10 to 100 µM.

What about the IC50 (Human Factor XIa) of the same compound?
The IC50 was 10 to 100 µM.

With `CC(C)(C)OC(=O)N1CCC(C)(c2cc(NCc3ccc(Cl)s3)n(C(=O)C(C)(C)C)n2)CC1` [Entry 291, tert-butyl 4-(5-[(5-chlorothiophen-2-yl)methyl]amino-1-(2,2-dimethylpropanoyl)-1H-pyrazol-3-yl)-4-methylpiperidine-1-carboxylate] as the compound, how does the IC50 [1] read?
The IC50 was 10 to 100 µM.

And the IC50 (Human Factor XIa)?
The IC50 was greater than 100 µM.

What does the source list for `CC(C)(CO)C(=O)n1nc(C2CCNCC2)cc1NCc1ccc(Cl)s1`?
IC50 [1]: 1 to 10 µM; IC50 (Human Factor XIa): 10 to 100 µM
